Reference: US7354728B2, “Coactivation of nuclear receptors” (N.V. Organon, priority 2000, dated 2008)

Protein sequences, listed by entry. Tags and fused reporters are not part of them.
UniProt Q92731, whole entry: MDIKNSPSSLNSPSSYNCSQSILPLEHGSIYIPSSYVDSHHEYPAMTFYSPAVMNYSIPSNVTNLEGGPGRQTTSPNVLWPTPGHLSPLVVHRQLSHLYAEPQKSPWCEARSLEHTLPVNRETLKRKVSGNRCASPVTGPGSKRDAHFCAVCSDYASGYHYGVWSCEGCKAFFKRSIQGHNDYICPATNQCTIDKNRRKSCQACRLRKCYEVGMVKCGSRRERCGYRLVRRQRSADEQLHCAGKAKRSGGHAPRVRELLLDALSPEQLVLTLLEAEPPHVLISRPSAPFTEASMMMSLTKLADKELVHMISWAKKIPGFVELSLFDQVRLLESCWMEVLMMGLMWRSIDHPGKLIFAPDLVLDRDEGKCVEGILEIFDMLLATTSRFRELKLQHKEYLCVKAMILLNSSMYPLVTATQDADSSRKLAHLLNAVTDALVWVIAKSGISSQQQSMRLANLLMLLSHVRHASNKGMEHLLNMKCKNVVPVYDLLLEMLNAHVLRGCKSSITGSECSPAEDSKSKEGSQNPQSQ

Tests used:
ERβ and COASTER = ERβ and COASTER (Homo sapiens, UniProt Q92731); experiment: Yeast two-hybrid assay, β-galactosidase reporter, ERβ with COASTER amino acids 1-234; conditions: yeast AH109, pGBT9.ERβ + pACT2.COASTERΔ; 10^−8 M 17β-estradiol, 10^−5 M raloxifen
ERβ = target: T1, ERβ (Homo sapiens, UniProt Q92731); experiment: Transient transfection of U-2 OS cells with ERβ and ERE luciferase reporter, with or without COASTER; assay type: cell-based; conditions: 10^−7 M ligand
T1 construct: expressed in transfected cells; host or cells: U-2 OS

With `O=C(c1ccc(OCCN2CCCCC2)cc1)c1c(-c2ccc(O)cc2)sc2cc(O)ccc12` [raloxifen] the “β-galactosidase reporter activity (ERβ-COASTER interaction, FIG. 3)” value (ERβ and COASTER) was “not able to induce” and the “ERβ-mediated transcription with cotransfected COASTER, ERE reporter (FIG. 4)” value (ERβ) was “not when ERβ is present as the estrogen receptor”.
